scFv variants of Ab-14 (light chain) against a SARS-CoV-2 spike peptide

Binding partner: SARS-CoV-2 spike HR2 peptide, sequence PDVDLGDISGINAS.

The variants keep the heavy chain, the linker and the frameworks of Ab-14 (scFv order VH, three GGGGS repeats, VL).
VH: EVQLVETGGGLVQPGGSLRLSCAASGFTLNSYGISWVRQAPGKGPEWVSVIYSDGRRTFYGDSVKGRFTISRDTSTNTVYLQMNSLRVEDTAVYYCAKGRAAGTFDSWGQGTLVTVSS
VL: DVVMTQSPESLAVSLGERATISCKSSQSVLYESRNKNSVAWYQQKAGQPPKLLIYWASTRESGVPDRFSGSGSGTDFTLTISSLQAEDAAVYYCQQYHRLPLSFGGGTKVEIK

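The starting antibody came from a phage panning campaign against this peptide. AAYL50 was designed without a model: most single CDR substitutions and a random sample of double and triple ones. AlphaSeq pools MATa yeast showing the antibodies with MATalpha yeast showing the peptide. Pairs that bind mate more often; barcode pairs of the diploids are counted by sequencing. Read counts were normalised to the haploid input and turned into Kd by a linear fit to BCL2-family pairs of known affinity, for each replicate. Mating was done three times.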

Variants are written as CDR1, CDR2 and CDR3 of the light chain (limits as in the source). Parent: KSSQSVLYESRNKNSVA, WASTRES, QQYHRLPLS.
All variants listed here change E32 of the VL, counted from its first residue.
Values are apparent Kd, the geometric mean of the replicates that gave a signal; lower means stronger binding.
An entry "no signal" has no value in the source: the pair was not observed among the diploids in any replicate. This suggests poor binding but is not conclusive.
Background: pairings of library AAYL50 with three empty control strains gave a value in 18% of cases (median 15 µM, 5th percentile 970 nM). Values in that range, when seen in few replicates, are hard to tell from nonspecific mating. The control count says in how many pairings with the empty strains this scFv gave a signal.
Parent in this assay: reference entry 4.4 nM, copy in this library 48 nM.

For KSSQSVLYDSRNKESVA, WASIRES, QQYHRLPLS, the assay gave 5.7 nM (3 of 3 replicates; controls 0 of 9).
For KSSQSVLYYSRNKNSVT, WASIRES, QQYHRLPLS, the assay gave no signal (0 of 3 replicates; controls 0 of 9).
For KSSQSNLYRSRNKNSVA, WASTRES, QQYHRLPLS, the assay gave 220 nM (3 of 3 replicates; controls 2 of 9).
For KSSQSVLYNSRNKNHVA, WNSTRES, QQYHRLPLS, the assay gave 17 µM (2 of 3 replicates; controls 7 of 9).
For KSSQSVLYPFRNKNSVA, WCSTRES, QQYHRLPLS, the assay gave 1.6 µM (3 of 3 replicates; controls 1 of 9).
For KSSQSVLYDSRNKNSVA, WGSTRES, QQDHRLPLS, the assay gave 12 µM (1 of 3 replicates; controls 1 of 9).
For KSSQSVLYKSRNNNSVA, HASTRES, QQYHRLPLS, the assay gave 5.8 nM (3 of 3 replicates; controls 1 of 9).
For KSSQSVLYCSGNKNSVA, QASTRES, QQYHRLPLS, the assay gave 7.0 nM (3 of 3 replicates; controls 0 of 9).
For KSSQRVLYKSRNKNSVA, WASTRES, QQYHRLALS, the assay gave no signal (0 of 3 replicates; controls 0 of 9).
For KSSQSVLYISRNKNSVA, WASTRQS, QQNHRLPLS, the assay gave 3.1 µM (1 of 3 replicates; controls 0 of 9).
For KSSQSLLYCSRNKNSGA, WASTRES, QQYHRLPLS, the assay gave 37 µM (2 of 3 replicates; controls 3 of 9).
For KSSYSVLYHSRNKNSVA, WASTRES, QQYHRLPLS, the assay gave 21 nM (3 of 3 replicates; controls 1 of 9).
For KSSQSVLYDSRNKSSVA, WASTRES, QQYHRLPLS, the assay gave 39 nM (3 of 3 replicates; controls 0 of 9).
For KSSQSVLYVSRNKNSVA, MASTRES, QQYHRAPLS, the assay gave no signal (0 of 3 replicates; controls 0 of 9).
For KSSQSVLYKSINKNSVA, WASTRES, QQYHRLPLS, the assay gave 22 nM (3 of 3 replicates; controls 4 of 9).
For KSSQSVLYDSRMKNSVA, WASTRES, QQYHRLPLS, the assay gave 3.8 nM (3 of 3 replicates; controls 0 of 9).
For KSSQSVLYMSRNKNSVA, WAGTREE, QQYHRLPLS, the assay gave 12 µM (2 of 3 replicates; controls 1 of 9).
For KGSQSVLYASRNKNSVA, WASTRES, QQYHCLPLS, the assay gave no signal (0 of 3 replicates; controls 0 of 9).
For KESQSVLYPSRNKNSVA, CASTRES, QQYHRLPLS, the assay gave 990 nM (3 of 3 replicates; controls 0 of 9).
For KSSQSVLYPSRNKNSVA, WAWKRES, QQYHRLPLS, the assay gave 1.2 µM (3 of 3 replicates; controls 3 of 9).
For KSSQSVLYSSRNKNSWA, WASTRFS, QQYHRLPLS, the assay gave no signal (0 of 3 replicates; controls 0 of 9).
For ESSQSVLYNSRNKNSVA, WASTRES, FQYHRLPLS, the assay gave 7.4 µM (2 of 3 replicates; controls 3 of 9).
For KSSQSVLYMSRNKNSVA, WASTRES, QQYHRRPRS, the assay gave 700 nM (3 of 3 replicates; controls 3 of 9).
For KSSQRVLYLSRNKNSVA, WPSTRES, QQYHRLPLS, the assay gave 4.2 µM (1 of 3 replicates; controls 4 of 9).
For KSSQSVLAWSRNKNSVP, WASTRES, QQYHRLPLS, the assay gave no signal (0 of 3 replicates; controls 0 of 9).
For KHSQSVLYWSRNKNSVA, WASTRES, QQYHRLPLS, the assay gave no signal (0 of 3 replicates; controls 0 of 9).
For KSSQSTLYNSRNKNSVA, WAGTRES, QQYHRLPLS, the assay gave 66 nM (3 of 3 replicates; controls 6 of 9).
For KSSQSVLYCSRNKNSGA, WASTRES, QQYHRDPLS, the assay gave 16 µM (1 of 3 replicates; controls 0 of 9).
For KSSQSVLYCSRNKNSVA, WASTRLS, QQYHRLPLS, the assay gave 14 µM (2 of 3 replicates; controls 2 of 9).
For KSSQSVLYNSMNKNSVL, WASTRES, QQYHRLPLS, the assay gave no signal (0 of 3 replicates; controls 0 of 9).
For KSSQSVLYPSRGKNSVA, WSSTRES, QQYHRLPLS, the assay gave 17 nM (3 of 3 replicates; controls 2 of 9).
For KSSQSVLYRSINKNSVA, WASTRES, QQAHRLPLS, the assay gave no signal (0 of 3 replicates; controls 0 of 9).
For KSSQSVLYRSRNKNSVA, WASTRES, QQRHRLPLR, the assay gave no signal (0 of 3 replicates; controls 0 of 9).
For WSSQSVLYKSRNKNSVA, WASTRES, QQYHRLTLS, the assay gave 610 nM (3 of 3 replicates; controls 2 of 9).
For KSSWSVLYQSRNKNSVA, WASTRES, QQYHRLPIS, the assay gave 83 nM (3 of 3 replicates; controls 1 of 9).
For KSSQSVLYCSRNNNSVA, WASTRES, QQFHRLPLS, the assay gave 5.4 µM (3 of 3 replicates; controls 1 of 9).
For KSSQSVLYCSRSKNSVA, WASTYES, QQYHRLPLS, the assay gave 67 µM (2 of 3 replicates; controls 6 of 9).
For KSSQSVLYSSRNKNSVA, WASTRES, QQDHRLKLS, the assay gave 16 nM (3 of 3 replicates; controls 0 of 9).
For KSSQSVLYISRNKESVA, RASTRES, QQYHRLPLS, the assay gave 180 nM (3 of 3 replicates; controls 1 of 9).
For KSSQEVLYHSRNVNSVA, WASTRES, QQYHRLPLS, the assay gave 7.1 nM (3 of 3 replicates; controls 1 of 9).
For KSSQSILYFSRNKNSVA, WNSTRES, QQYHRLPLS, the assay gave 3.9 µM (1 of 3 replicates; controls 0 of 9).
For KSSQSVLYHSRNKNSVA, WASTVES, QQYHRLPLS, the assay gave 370 nM (3 of 3 replicates; controls 4 of 9).
For KSSQSVRNSSRNKNSVA, WASTRES, QQYHRLPLS, the assay gave 540 nM (1 of 3 replicates; controls 0 of 9).
For KSSQSVLYYSRNKISVA, WESTRES, QQYHRLPLS, the assay gave 3.2 µM (2 of 3 replicates; controls 0 of 9).
For KSSDSVLRYSRNKNSVA, WASTRES, QQYHRLPLS, the assay gave 28 nM (3 of 3 replicates; controls 4 of 9).
For KSSWSVLYNTRNKNSVA, WASTRES, QQYHRLPLS, the assay gave 21 nM (3 of 3 replicates; controls 2 of 9).
For KSSQSVLYCSRNKNSVA, WMQTRES, QQYHRLPLS, the assay gave no signal (0 of 3 replicates; controls 0 of 9).
For KKSQSVLYVSRNKNSCA, WASTRES, QQYHRLPLS, the assay gave no signal (0 of 3 replicates; controls 0 of 9).
For KSSQSVLYCSRNKNSVA, WASTDES, QQYHRLPLS, the assay gave 89 µM (1 of 3 replicates; controls 2 of 9).

Excerpt, the final 6 entries:

| CDR-L1 | CDR-L2 | CDR-L3 | Kd (apparent) | seen in | signal with controls |
|---|---|---|---|---|---|
| KSSQSVLYYSRNKISVA | WESTRES | QQYHRLPLS | 3.2 µM | 2 of 3 | 0 of 9 |
| KSSDSVLRYSRNKNSVA | WASTRES | QQYHRLPLS | 28 nM | 3 of 3 | 4 of 9 |
| KSSWSVLYNTRNKNSVA | WASTRES | QQYHRLPLS | 21 nM | 3 of 3 | 2 of 9 |
| KSSQSVLYCSRNKNSVA | WMQTRES | QQYHRLPLS | no signal | 0 of 3 | 0 of 9 |
| KKSQSVLYVSRNKNSCA | WASTRES | QQYHRLPLS | no signal | 0 of 3 | 0 of 9 |
| KSSQSVLYCSRNKNSVA | WASTDES | QQYHRLPLS | 89 µM | 1 of 3 | 2 of 9 |

Source: Engelhart et al. 2022 (doi:10.1038/s41597-022-01779-4), MIT Lincoln Laboratory and A-Alpha Bio; data file from the FLAb repository.